## Yeast mating assay B: variants of the scFv Ab-14

Binding partner: SARS-CoV-2 spike HR2 peptide, sequence PDVDLGDISGINAS.

Parent scFv Ab-14: VH joined to VL by a (GGGGS)3 linker. Changes lie in the light chain CDRs alone.
VH: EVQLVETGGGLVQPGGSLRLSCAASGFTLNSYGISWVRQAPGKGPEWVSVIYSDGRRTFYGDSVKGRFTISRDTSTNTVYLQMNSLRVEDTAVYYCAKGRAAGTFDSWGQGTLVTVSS
VL: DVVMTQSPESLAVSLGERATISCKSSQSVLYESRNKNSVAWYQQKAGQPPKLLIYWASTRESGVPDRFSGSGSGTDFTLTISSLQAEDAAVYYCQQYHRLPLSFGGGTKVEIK

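The parent was found by panning a naive human phage display library on the peptide. These sequences belong to a second round, designed from the earlier measurements on random variants of the parent. Their group label is 14L_En_HC (En: ensemble of fine-tuned language models; HC: hill climbing; a sequence that several methods proposed may carry one label only). AlphaSeq pools MATa yeast showing the antibodies with MATalpha yeast showing the peptide. Pairs that bind mate more often; barcode pairs of the diploids are counted by sequencing. A regression on co-assayed BCL2-family reference pairs converts the normalised counts of each replicate to an apparent Kd. The assay was run in six technical replicates.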

Each variant is given by its three light chain CDRs, as the data file delimits them; those of the parent are KSSQSVLYESRNKNSVA, WASTRES, QQYHRLPLS. Numbers give log10(Kd / nM), so 0 is 1 nM and 3 is 1 µM. Smaller is tighter. Averages over replicates are reported, and they cover detected replicates only. A pair that was not seen in that replicate is written "nd"; this usually means weak binding, but a binder can also be missed. As a blank, each scFv also met three strains without target: over all light chain designs, 4% of these pairings were detected, typically at 2.64 and seldom below 1.59. For each scFv, signals with the empty controls are counted beside the result. The authors averaged sequences with at least three values out of six and counted those with two or fewer as poor binders. The parent sequence was in this pool as ten entries: three were never detected, three once, and four in most replicates, with averages from 0.34 to 2.37. A sequence measured in both rounds can read differently, since the two assays cover different ranges.

The variant KLYDNVGTMSHNKQSIA | DMERRED | QQYHRLPLS gave -0.06, 0.12, -0.15, -0.33, -0.31, -0.10 (mean -0.14; controls 2 of 18).
The variant KLGQSTAMTSRNKNNVA | DLNERER | QQYHRLPLS gave 0.16, 0.04, 0.05, -0.11, 0.05, 0.07 (mean 0.04; controls 0 of 18).
The variant MLSDVVMQGSYSRNSVA | QESTRAE | QQYHHLPLS gave 0.57, 0.78, 0.82, 0.69, 0.79, 1.12 (mean 0.79; controls 2 of 18).
The variant KLRQMTLTGGYFKNSVA | QASTREN | QSYHRLPLS gave 0.75, 0.82, 1.04, 0.57, 1.03, 0.38 (mean 0.76; controls 0 of 18).
The variant KVQGLMNIEQMNSKSVA | QSSTREN | QQYHRLPLS gave 0.69, 0.25, 0.28, 0.32, 0.50, 0.59 (mean 0.44; controls 4 of 18).
The variant KLGQAVAMTSRNKNNVA | DLNERER | QQYHRLPLS gave -0.16, -0.38, -0.53, -0.50, -0.40, -0.38 (mean -0.39; controls 0 of 18).
The variant MISDLMLHGSRAKNPIA | NAETREY | QQYHRLPLE gave 0.22, 0.50, 0.46, 0.19, 0.32, 0.51 (mean 0.37; controls 1 of 18).
The variant KLSQVTEYESHNKNNVA | DLSTRGS | QDYHRLPLS gave -0.27, 0.11, 0.00, 0.44, 0.19, 0.33 (mean 0.13; controls 0 of 18).
The variant KISQVFMMTGKNKNSVA | NALTRVS | QQYHRLPLS gave 0.10, 0.17, -0.01, -0.26, 0.12, 0.13 (mean 0.04; controls 0 of 18).
The variant KLSVSNLFEQLEKNSIA | ENSTREK | QHYHRLPLS gave nd, nd, nd, nd, nd, nd (controls 1 of 18).
The variant KIYAMTMLESHDKNSIA | DLSTRGN | QQYHRLPLS gave 1.25, 3.73, 4.30, 2.12, 1.56, 1.19 (mean 2.36; controls 1 of 18).
The variant IISGFMLMESRNKNSVA | NAETREY | QHYDRLPLS gave 1.70, nd, 3.03, 2.00, 1.75, 1.97 (mean 2.09; controls 0 of 18).
The variant KLSMSALMESRNKNSVA | ENSTRES | QHYHRLPLS gave nd, nd, 3.43, nd, nd, nd (controls 0 of 18).
The variant KISGMYQKESKNKNSVA | EMANRES | QQYDRLPLS gave 0.51, 0.62, 0.56, 0.87, 0.18, 0.50 (mean 0.54; controls 3 of 18).
The variant KISMSYRYESQSKNSIA | EMSRREN | QQYHRLPLS gave 0.43, 0.22, -0.13, 0.17, 0.40, 0.31 (mean 0.23; controls 0 of 18).
The variant ALGDVTRMESNKKNSIA | DMSNRMS | QQYHRLPLS gave 0.17, 0.03, 0.04, 0.12, -0.10, 0.22 (mean 0.08; controls 0 of 18).
The variant KITQMYRYEQQNSSSIA | EANTREQ | QSYHRLPLS gave 1.22, 1.91, 1.15, 2.06, 1.51, 2.65 (mean 1.75; controls 2 of 18).
The variant KISMATTFESRNHNSVA | ENSTREQ | QSYHRLPLS gave 2.32, 3.59, 2.71, nd, 3.54, 3.34 (mean 3.10; controls 1 of 18).
The variant TISQSWFIESRNKNNVA | EMSTREN | QDYDRLPLS gave 0.35, 0.48, 0.45, 0.25, 0.34, 0.40 (mean 0.38; controls 0 of 18).
The variant MSYGGDMLESVTRNSVA | NAETRED | QDYHRLPLS gave 1.08, 0.91, 1.07, 0.84, 1.03, 1.15 (mean 1.01; controls 1 of 18).
The variant QLGAYQDMTSKNKNSVA | EQSTREN | QQYHRLPLS gave 1.41, 1.28, 1.21, 1.38, 1.76, 1.95 (mean 1.50; controls 0 of 18).
The variant KLSQVTNSEHKVQNSIA | EMVTREK | QQYDRLPLS gave 1.87, 0.92, 0.63, 1.02, 1.01, 1.38 (mean 1.14; controls 0 of 18).
The variant KLRQVTGYESYLRNSVA | QTSTRAE | QDYHRLPLS gave 1.40, 1.20, 1.04, 1.25, 0.81, 0.83 (mean 1.09; controls 0 of 18).
The variant KLLQAVLGESYNKNNVA | HNSTRED | QEYARLPLS gave 2.13, 2.36, 2.43, 1.52, 2.31, 2.45 (mean 2.20; controls 2 of 18).
The variant IISQVDAYQSRNKNSIA | DQSTRGS | QQYDRLPLS gave 0.79, 0.56, 0.54, 0.40, 0.30, 0.73 (mean 0.55; controls 3 of 18).
The variant HVSEMIFAQMKMRNSVA | ENSTREA | QQYDRLPLS gave nd, nd, 2.69, nd, nd, 2.03 (mean 2.36; controls 1 of 18).
The variant MFSQSVMYGSFMRNSVA | QTSTREN | QQYDRLPLS gave 0.62, 0.61, 0.43, 0.08, 0.55, 0.54 (mean 0.47; controls 2 of 18).
The variant QLMQVGGYESNNKNSIA | DLRTREH | QQYHRLPLS gave 0.63, 0.76, 0.57, 0.56, 0.48, 0.98 (mean 0.66; controls 0 of 18).
The variant KISGLYNFAQTNKNSIA | EMTTRED | QHYHRLPLS gave 1.11, 0.73, 1.08, 0.91, 0.78, 0.80 (mean 0.90; controls 3 of 18).
The variant KLLQTVKNGSYNRNNVA | HMTMRED | QQYFRLPLS gave nd, nd, 1.68, 0.84, nd, 1.50 (mean 1.34; controls 0 of 18).
The variant TISQSMLYLSNLKNSVA | QAETREE | QQYHRLPIS gave 1.01, 0.35, 0.15, 0.34, 0.90, 0.60 (mean 0.56; controls 1 of 18).
The variant KIGMVTNGISRNKNSVA | EQSTRED | QQYNRLPLS gave 1.18, 0.41, 0.99, 0.77, 0.90, 0.61 (mean 0.81; controls 2 of 18).
The variant MISDLTMYGSRNKNSVA | DLSTRGS | QQYERLPLS gave 0.91, 1.01, 0.75, 0.74, 0.81, 0.93 (mean 0.86; controls 1 of 18).
The variant MLSQLMAYGSRYANSVA | QASTRED | QQYHRLPLS gave 0.96, 1.30, 0.48, 0.71, 0.84, 1.96 (mean 1.04; controls 0 of 18).
The variant KISMMVGTKGGARNSVA | NEQTRYD | QQYHRLPLS gave 0.87, 0.73, 0.88, 0.40, 0.59, 0.61 (mean 0.68; controls 0 of 18).
The variant KLSQSVRMEQFNKNSVA | ENSTREA | QDYHRLPLS gave 2.45, 2.80, 2.21, nd, 3.23, 2.49 (mean 2.64; controls 4 of 18).
The variant MLSQLFMYGSRNYNSVA | QASTRES | QQYDRLPLI gave 1.34, 1.72, 1.48, 2.86, 1.33, 1.29 (mean 1.67; controls 1 of 18).
The variant SFSQTVMYESTMRNNVA | QTSTRES | QQYDHLPLS gave 0.32, 0.13, 0.13, 0.02, 0.02, 0.19 (mean 0.14; controls 1 of 18).
The variant KIMQSLNYESFNKNSVA | GQTTRER | QSYHRLPLS gave nd, 1.11, 2.33, 1.15, 1.54, 1.63 (mean 1.55; controls 1 of 18).
The variant MISSLTMYGSRNKNSVA | DLSTRGS | QQYHRLPLS gave 0.69, 0.96, 0.25, 0.45, 1.02, 0.88 (mean 0.71; controls 0 of 18).
The variant KIGLVTNGISFSKNSVA | EQSTRED | QQYDRLPLS gave 0.86, 0.71, 0.61, 0.39, 0.35, 0.60 (mean 0.59; controls 0 of 18).
The variant TISQLMLYEQRNKNNVA | GTSTRES | QCYHRLPLS gave 0.48, 0.67, 0.55, 0.41, 0.32, 0.56 (mean 0.50; controls 2 of 18).
The variant IFSQSALMGNMTRNSVA | QASTRFN | QQYHRLPLI gave 1.99, 1.38, 1.83, 1.62, 1.67, 2.01 (mean 1.75; controls 1 of 18).
The variant KLYMSTGFESRNKDSIA | DNSTRGR | QQYHRLPLS gave 1.11, 0.84, 1.53, 1.16, 0.99, 0.69 (mean 1.05; controls 0 of 18).
The variant MFSSLMEYGSRYKNSVA | QASTREN | QQYHWLPLS gave nd, nd, nd, nd, nd, nd (controls 0 of 18).
The variant KISMSNTFESRNKNSVA | ENSTRES | QSYHRLPLS gave nd, 2.20, 1.90, nd, 2.89, 3.45 (mean 2.61; controls 0 of 18).
The variant KLTMTYQHTSRNKNNIA | ERSTREE | QQYHHLPLS gave 1.38, 0.03, 0.16, 0.24, 0.11, 0.25 (mean 0.36; controls 0 of 18).
The variant KISYMGEIFSTNHSSIA | QASTREQ | QQYHRLPLS gave 1.50, 1.21, 1.15, 0.69, 0.70, 0.97 (mean 1.04; controls 0 of 18).
The variant KLSQSVRMEQFNKDNVA | ENSTREA | QDYHRLPLS gave nd, nd, nd, nd, nd, nd (controls 2 of 18).
The variant TISQSTLMTGLNRNSVA | QAEERIE | QQYHRLPLS gave 0.70, 0.39, 0.28, 0.27, 0.71, 0.51 (mean 0.48; controls 0 of 18).
The variant TLSQSWGMESHHKNNVA | QESTREK | QQYFRLPIS gave 0.31, 0.19, 0.07, 0.48, 0.88, 0.67 (mean 0.43; controls 0 of 18).
The variant MIAAGLRGVGRNKNSVA | NAQTRED | QHYHRLPLS gave nd, 1.26, 1.40, 2.19, 2.20, 1.49 (mean 1.71; controls 0 of 18).

Reference: Li et al. 2023, doi:10.1038/s41467-023-39022-2. File: FLAb, binding data.